Results on one compound are retold here after patent US20040266687A1, “Compositions and methods comprising protein activated receptor antagonists” (priority 2002, published 2004).

Molecules are shown by their SMILES.

Assay [1] is described as follows: Arthrogen-CIA induced body weight loss in mice. To be noted: 200 mg/kg/day i.p. for 7 days, Balb/c mice. It counts as in vivo. The method, then:
On day 0, Balb/c mice were injected IV with the 1-2 mg 1B11 monoclonal anti-collagen II antibody. On day 1, animals were injected i.p with 20 ug LPS, and treatment with PAR-2 antagonists (200 mg/kg/day i.p). for 7 days is initiated. After treatment was completed, disease is quantified by measuring the thickness (swelling) in both feet of the mouse. This was compared to untreated mice This model results in significant weight loss associated with the administration of LPS. Treatment of these mice with LIGK abrogated this LPS induced weight loss.

Assay [2] has as its target T1, PAR-2 (Homo sapiens, UniProt P55085).
T1 construct: endogenous in cells; host or cells: HUVEC or HT29 colon carcinoma cells
T1 sequence (P55085 26-397): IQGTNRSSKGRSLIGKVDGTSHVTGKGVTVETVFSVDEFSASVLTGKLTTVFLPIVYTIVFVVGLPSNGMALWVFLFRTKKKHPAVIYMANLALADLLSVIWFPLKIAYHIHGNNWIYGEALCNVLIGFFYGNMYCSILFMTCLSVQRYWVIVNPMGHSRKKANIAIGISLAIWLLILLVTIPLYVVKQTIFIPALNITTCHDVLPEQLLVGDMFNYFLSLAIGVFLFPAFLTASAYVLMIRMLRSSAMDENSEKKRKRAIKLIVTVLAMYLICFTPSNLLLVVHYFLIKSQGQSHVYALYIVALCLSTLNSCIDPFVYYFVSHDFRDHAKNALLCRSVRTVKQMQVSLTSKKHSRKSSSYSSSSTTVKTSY
Description: PAR signalling activity: calcium mobilization (Fluo-4) in response to peptides. It counts as cell-based. The following applies: result in words, FIG. 4A-4C. As to the method: (§1) Confluent HUVECs or HT29 colon carcinoma cells were loaded for 30-60 minutes with the fluorescent dye Fluo-4. Final concentration 4 uM Fluo-4, 0.02% pluronic acid in physiological buffer. Cells were then washed with assay buffer, (HBSS containing 1 mM CaCl2, 1 mM MgSO4, and 2.5 mM probenecid). Cells were stimulated with various doses of PAR-2 activating peptide, PAR-1 activating peptide or ATP.
(§2) Fluorescence was monitored using a Wallac 1470 fluorescent plate reader. (See Al-ani et. al Journal of Pharmacology and Experimental Therapeutics 290:2, 753-760)
Calcium mobilization curves of the PAR-2 agonist SLIGKV (SEQ ID NO:25) compared with two truncated molecules LIGK (SEQ ID NO:1) and LIGKV (SEQ ID NO:2) are provided in FIG. 4A. […] Similar studies were performed on alanine substituted SLIGKV (SEQ ID NO:25) peptides (FIGS. 4B and 4C).

Assay [3] addresses T1, PAR-2. Description: Inhibition of P2AP (SLIGKV)-stimulated PAR-2 signaling in cells pretreated with antagonist. It counts as cell-based. As to the method:
as §1, §2
In order to assess the potential of peptides selected above to block PAR-2 signaling, cells were pretreated with potential antagonist peptides for a predetermined amount of time and were subsequently treated with P2AP. Methods and protocols used were the same as those described in Example 1.

For assay [4], the system named is LLC. Briefly: Antiproliferative effect on LLC in vitro. It counts as cell-based. To be noted: data not shown.
For assay [5], the system named is LLC primary tumor. Description: LLC primary tumor model. It counts as in vivo, mice. To be noted: 1 mg/day, treatment initiated when tumor volume approaches 100 mm^3. The method, then:
Similar experiments were performed in the LLC primary tumor model. In this model, treatment is initiated when tumor volume approaches 100 mm^3. […] At 1 mg/day, tumor growth was inhibited by 62%. Similar experiments were performed in the LLC primary tumor model. In this model, treatment is initiated when tumor volume approaches 100 mm^3. […] At 1 mg/day, tumor growth was inhibited by 62%.

The subject of assay [6] is Lewis lung carcinoma. Briefly: Lewis lung carcinoma (LLC) experimental metastatic model. Type of assay: in vivo, mice. As to the method:
In this tumor growth model, treatments were initiated on day 3 post inoculation, after tumor cells had homed to the lung, and started growing. […] At a dose of 4 mg/day tumor growth was inhibited by 75%. […] C57/B16 mice were injected i.v. with Lewis lung carcinoma. 3 days later, treatment of lung tumors was started with i.p. LIGK (SEQ ID NO:1) for 11 days.

Assay [7] concerns the target T2, PAR-1 (Homo sapiens, UniProt P25116).
T2 construct: endogenous in cells; host or cells: HUVEC or HT29 colon carcinoma cells
T2 sequence (P25116 22-425): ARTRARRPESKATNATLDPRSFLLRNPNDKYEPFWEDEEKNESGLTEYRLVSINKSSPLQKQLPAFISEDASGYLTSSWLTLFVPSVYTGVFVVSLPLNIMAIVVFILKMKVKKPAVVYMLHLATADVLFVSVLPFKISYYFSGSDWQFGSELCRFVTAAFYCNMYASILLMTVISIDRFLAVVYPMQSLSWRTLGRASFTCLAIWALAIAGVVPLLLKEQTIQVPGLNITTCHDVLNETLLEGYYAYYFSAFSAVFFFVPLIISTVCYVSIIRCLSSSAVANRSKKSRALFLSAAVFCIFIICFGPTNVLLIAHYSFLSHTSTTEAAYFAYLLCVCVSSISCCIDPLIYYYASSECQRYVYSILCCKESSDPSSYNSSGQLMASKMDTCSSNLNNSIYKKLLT
Description: Activation study with PAR-1 activation peptide SFLLRN on cells pretreated with antagonist. Type of assay: cell-based. The following applies: cells pretreated with the substance. As to the method:
as §1, §2
(§3) Both of these molecules signal through G-protein coupled receptors, and PAR-1 is very highly homologous to PAR-2, to the degree that the PAR-1 agonist peptide can signal through PAR-2 at high concentrations.

The test system of assay [8] is angiogenesis. Description: Matrigel angiogenesis model (hemoglobin content in the plug). It counts as in vivo, mice. The following applies: highest dose, s.c. for 6 days, FGF-2 Matrigel. As to the method:
Since TF/fVIIa inhibitors are also potent antiangiogenic agents, we tested the antiangiogenic activity of LIGK in the Matrigel angiogenesis model. In this assay Matrigel admixed with bFGF are implanted subcutaneously and treatments are initiated 24 h later. bFGF control plugs are highly vascularized and filled with blood filled vessels. […] At the highest dose of LIGK,. angiogenesis was inhibited by more than 80%.
C57/B16 mice were injected s.c. with Matrigel containing 0.5 μg FGF-2. Treatment was started at day 1 with LIGK administered s.c. for 6 days.

Assay [9] in a line: Arthritis in mice (anti-collagen II antibody plus LPS), foot thickness. Type of assay: in vivo. The following applies: 200 mg/kg/day i.p. for 7 days, Balb/c mice, FIG. 19. The method, then:
On day 0, Balb/c mice were injected IV with the 1 -2 mg 1B11 monoclonal anti-collagen II antibody. On day 1, animals were injected i.p with 20 ug LPS, and treatment with PAR-2 antagonists (200 mg/kg/day i.p). for 7 days is initiated. After treatment was completed, disease is quantified by measuring the thickness (swelling) in both feet of the mouse. This was compared to untreated mice. (p<0.05 vs. vehicle control)

For assay [10], the system named is ATP signaling (G-protein coupled receptors). Briefly: Activation study with ATP on cells pretreated with antagonist. To be noted: cells pretreated with the substance. Type of assay: cell-based. As to the method: as §1, §2, §3
For assay [11], the target named is T3, PAR-2 (Mus musculus, UniProt P55086).
T3 construct: C57bl/b mice had 5-25 μg of SLIGKV injected into their footpad; from tissue; host or cells: mouse footpad in vivo (C57bl mice)
T3 sequence (P55086 26-399): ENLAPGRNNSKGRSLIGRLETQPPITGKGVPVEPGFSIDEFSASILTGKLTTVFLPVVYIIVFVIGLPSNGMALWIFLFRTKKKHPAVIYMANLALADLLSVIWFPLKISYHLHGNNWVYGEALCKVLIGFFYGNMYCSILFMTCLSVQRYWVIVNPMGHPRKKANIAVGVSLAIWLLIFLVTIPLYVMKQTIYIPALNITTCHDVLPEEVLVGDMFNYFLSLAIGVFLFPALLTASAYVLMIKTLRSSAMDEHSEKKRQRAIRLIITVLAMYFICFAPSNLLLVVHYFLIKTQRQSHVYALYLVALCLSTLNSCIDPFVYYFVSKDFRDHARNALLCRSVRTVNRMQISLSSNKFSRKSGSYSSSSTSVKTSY
Briefly: Edema model: footpad edema induced by PAR-2 agonist peptide. To be noted: co-treatment in footpad, measured one hour later. Type of assay: in vivo, mice. As to the method: C57bl/b mice had 5-25 μg of SLIGKV injected into their footpad, in the presence or absence of increasing amounts of various PAR-2 antagonists. One hour later, footpad (tarsus) thickness was measured to quantify inflammation (edema).
The inventors next assessed whether the LIGK peptide had in vivo PAR-2 antagonistic activity. This was studied using an edema model where vascular permeability was induced by the PAR-2 agonist peptide. In this model, the PAR-2 peptide induces severe edema as expected (FIG. 8). This vascular response was blocked by co-treatment with the PAR-2 antagonist LIGK (SEQ ID NO:1) (FIG. 9). Thus, LIGK (SEQ ID NO:1) functions in vivo to block PAR-2 signaling.

For `CC[C@H](C)[C@H](NC(=O)[C@@H](N)CC(C)C)C(=O)NCC(=O)N[C@@H](CCCCN)C(=O)O` [LIGK], the “LPS induced weight loss” value in [1] is on record as “abrogated”. Also, the “calcium mobilization / signaling activity” value in [2] is on record as “Neither truncated molecule was able to induce calcium mobilization”. Moreover, in assay [3] (1 mM antagonist versus 100 uM SLIGKV, FIG. 5), the “blocking of SLIGKV signaling” value was “completely blocked”. Also, the IC50 (commonly the concentration at which inhibition is half-maximal) in [3] (FIG. 6) is less than 500 µM. For the same compound, the “antagonist activity on PAR-2 signaling” value in [3] (result in words, cells pretreated with the substance, then P2AP) is reported as “demonstrated antagonist activity”. The “antiproliferative effect on LLC in vitro” value in assay [4] is “no antiproliferative effect”. The “primary tumor growth inhibited” value in assay [5] worked out at 62%. Also, the “metastatic tumor growth inhibited” value in assay [6] (4 mg/day i.p., treatment from day 3 for 11 days) is on record as 75%. In addition, the “approximate IC50, metastatic tumor growth” value in assay [6] (across multiple independent studies, FIG. 11) is reported as roughly 2 mg/day. In addition, in [7], the “inhibitory effect on signaling by PAR-1 (activation peptide SFLLRN)” value is reported as “no inhibitory effect”. For the same compound, the “angiogenesis inhibited (hemoglobin content in the plug)” value in assay [8] is recorded as “more than 80%”. In addition, the “inflammation (arthritis, foot swelling)” value in assay [9] was “inhibited inflammation”. Moreover, the “inhibitory effect on signaling by ATP” value in assay [10] is “no inhibitory effect”. Moreover, the “vascular response (edema) induced by PAR-2 agonist peptide” value in assay [11] is on record as “blocked”.
